In article PMC3679298:

Target: HLA-C*03:04 tetramer refolded with the peptide …
Assay: SPR

**Q.** “soluble KIR2DL3*002 Fc fusion protein (sKIR2DL3*002) (from UniProt P43628 22-245)” was tested. Which peak resonance units (RU) did it give?
**A.** The peak resonance units (RU) was 4 RU.
